# From paper PMC8285372, “Biochemical and functional characterization of mutant KRAS epitopes validates this oncoprotein for immunological targeting” (Nature Communications, 2021)
# Assays:
# HLA-B*07:02 = HLA-B*07:02 (Homo sapiens, UniProt P01889); test: fluorescence polarization competitive peptide-binding assay; conditions: Experimental Affinity IC50
# HLA-A*02:01 = HLA-A*02:01 (Homo sapiens, UniProt P04439, D140Y/D185E/D98H/E176V/E277Q/G131W/G231S/I119V/I121R/I166T/I218V/L300P/L318F/N151K/N90K/P208A/P217A/Q86G/Q94H/R138H/R169H/T345S); format: binding
# HLA-A*03:01 = HLA-A*03:01 (Homo sapiens, UniProt P04439); test: p-HLA complex stability, scintillation proximity assay of β2-microglobulin dissociation; format: binding
compound,measurement,setting,value
CC(C)C[C@H](NC(=O)[C@H](C)NC(=O)[C@H](CO)NC(=O)[C@H](CCCCN)NC(=O)CNC(=O)[C@@H](NC(=O)CNC(=O)[C@H](CCCNC(=N)N)NC(=O)[C@H](C)NC(=O)CN)C(C)C)C(=O)O [Peptide 10-19R],pIC50,HLA-B*07:02,7.36
LLWNGPMAV,Experimental Stability (t1/2) Mean,HLA-A*02:01,5.9 h
same,"Half_life, Setp #1",HLA-A*02:01,6.7 h
same,"Half_life, Setp #2",HLA-A*02:01,5.1 h
same,"k, Setp #1",HLA-A*02:01,0.1041
same,"k, Setp #2",HLA-A*02:01,0.1367
VMYNLWKMK,Experimental Stability (t1/2) Mean,HLA-A*03:01,0.8 h
same,"Half_life, Setp #1",HLA-A*03:01,0.9 h
same,"Half_life, Setp #2",HLA-A*03:01,0.8 h
same,"k, Setp #1",HLA-A*03:01,0.8096
same,"k, Setp #2",HLA-A*03:01,0.8623

# pIC50: −log10 of the molar value.
